Source: PubChem BioAssay AID504847 (National Center for Advancing Translational Sciences (NCATS), 2011)
Where “and” joins values, the source holds several entries; their conditions need not be identical. Equal entries are not always repeated. Only a part is listed here, and it is no random draw. Results filed as inconclusive are left out. Calls of active or inactive are those of the source. Calls follow the shape of the dose curve; as a rule, active = well fitted inhibition curve with a large enough effect; inconclusive = small, poorly fitted or top-dose-only effect, or another doubt; inactive = no such curve, though single readings can be large or run the other way.

Amino acid sequences for entries named in this document (tags omitted).
UniProt P11473, whole entry: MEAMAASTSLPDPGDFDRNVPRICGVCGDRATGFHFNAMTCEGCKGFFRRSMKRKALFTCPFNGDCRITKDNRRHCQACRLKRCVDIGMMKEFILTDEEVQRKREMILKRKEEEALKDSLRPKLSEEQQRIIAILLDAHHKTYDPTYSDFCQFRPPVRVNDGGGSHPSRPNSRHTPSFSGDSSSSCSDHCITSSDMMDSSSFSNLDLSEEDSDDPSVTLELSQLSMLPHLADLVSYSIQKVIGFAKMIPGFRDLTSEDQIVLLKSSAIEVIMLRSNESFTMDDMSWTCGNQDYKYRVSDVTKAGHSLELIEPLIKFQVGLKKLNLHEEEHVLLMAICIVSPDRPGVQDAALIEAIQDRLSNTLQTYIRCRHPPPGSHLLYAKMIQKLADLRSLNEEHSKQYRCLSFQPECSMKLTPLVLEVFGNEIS

Target: Vitamin D3 receptor (Homo sapiens) (UniProt P11473)
Experiment: Inhibitors of the vitamin D receptor (VDR): qHTS
Conditions: VDR-SRC2-3 peptide fluorescence polarization, 2 h; max response, negative = inhibition: stronger effect = lower value
% is scaled to controls: 0 for no effect and ±100 for the full control effect.

| Structure (SMILES) | max response, negative = inhibition |
| --- | --- |
| COc1cc(C2NCCC3(OCCO3)C2(C)C)cc(OC)c1OC.O=[N+]([O-])c1cc([N+](=O)[O-])c(O)c([N+](=O)[O-])c1 (stereo not drawn) | inactive: -23.5% |
| Cc1ccc(C(=O)OC2CN3CCC2CC3)cc1 (stereo not drawn) | inactive: -10.8% |
| CC1CCC(C(C)C)C(OP(=O)(Nc2ccccn2)c2ccccc2)C1 (stereo not drawn) | inactive: -5.01% |
| Cc1nn(-c2ccccc2)c2c1P(=O)(N1CCOCC1)N(C)C(c1ccccc1)=N2 (stereo not drawn) | inactive: -3.41% |
| O=[As](O)(c1cccs1)c1cccs1 | inactive: -18.8% |
| NS(=O)(=O)c1cccc(NC(=O)COC(=O)C(O)(c2ccccc2)c2ccccc2)c1 | inactive: 7.9% |
| O=P1(Nc2ccc(Br)cn2)COc2ccccc2OC1 | inactive: -4.24% |
| CCCOc1ccc(NP(C)(=O)Oc2ccc(Cl)cc2)cc1 (stereo not drawn) | inactive: -5.05% |
| CP(=O)(Nc1ccc(SC(F)(F)F)cc1)Oc1ccccc1 (stereo not drawn) | inactive: -20.6% |
| Nc1cccc([As](=O)(O)c2ccccc2)c1 | inactive: -20.3% |
| CN1CCCCC1COC(=O)C1(O)c2ccccc2CCc2ccccc21 (stereo not drawn) | inactive: 3.57% |
| O=P1(Nc2ncccn2)COc2ccccc2OC1 | inactive: -25% |
| CC(C)(C)C(=O)NC(Sc1ncccn1)C(Cl)(Cl)Cl (stereo not drawn) | inactive: -24.7% |
| CC(C)N(CCCl)C(C)C | inactive: -5.21% |
| Clc1n[nH]nc1-c1nn[nH][15n]1 | inactive: -3.1% |
| CCOP(=O)(Nc1ccc(C)cn1)OCC | inactive: -14.6% |
| CN(CCCl)Cc1cc(Cl)c(NC2=NCCN2)c(Cl)c1 | inactive: 4.06% and inactive: 2.5% |
| O=[N+]([O-])c1cc([N+](=O)[O-])c(-n2nnc3ccccc32)c([N+](=O)[O-])c1 | inactive: 16.1% |
| CCOP(=O)(NC(=NC(C)c1ccccc1)NC(C)c1ccccc1)OCC (stereo not drawn) | inactive: -0.793% |
| CCC1=CC2Cc3nc4ccc(Cl)cc4c(N)c3C(C1)C2 (stereo not drawn) | inactive: -9.8% |
| O=P1(Nc2ccccn2)COc2ccccc2OC1 | inactive: -1.55% |
| CC1(CBr)Cn2c(nc3ccccc3c2=O)S1 (stereo not drawn) | inactive: -18.1% |
| CC(C)/C=N\N=C(\N)N[N+](=O)[O-] | inactive: 2.2% |
| COc1ccccc1CNC(=O)COC(=O)C(O)(c1ccccc1)c1ccccc1 | inactive: -20.7% |

| Structure (SMILES) | max response, negative = inhibition |
| --- | --- |
| O=[N+]([O-])c1cc([N+](=O)[O-])c(-c2cnn(-c3ccccc3)c2)c([N+](=O)[O-])c1 | inactive: 10.5% |
| Cc1cc(C)cc(OP(C)(=O)Nc2ccc(C)cc2C)c1 (stereo not drawn) | inactive: -2.05% |
| O=[As](O)(c1cccc(O)c1)c1cccc(O)c1 | inactive: -3.87% |
| COc1ccccc1OP(C)(=O)Nc1cccc(Br)c1 (stereo not drawn) | inactive: 6.55% |
| CS(=O)(=O)c1ccc(Cl)c(NC(=O)COC(=O)C(O)(c2ccccc2)c2ccccc2)c1 | inactive: -10.5% |
| O=[As](O)(O)c1cccnc1 | inactive: 11% |
| COc1cc(C(=O)NCC2(N3CCOCC3)CCCCC2)cc(Cl)c1OC(C)C | inactive: 6.45% |
| CN(C(=O)Cc1ccc(Cl)c(Cl)c1)[C@@H]1CC[C@]2(CCCO2)C[C@H]1N1CCCC1 | inactive: 2.08% |
| O=C(OC1CN2CCC1CC2)c1ccc(Cl)cc1 (stereo not drawn) | inactive: -5.79% |
| CCOP(=O)(Nc1cccc2ccccc12)OCC | inactive: 0.456% |
| Cc1ccc(C)c(NP(C)(=O)Oc2ccccc2)c1 (stereo not drawn) | inactive: 0.507% |
| CCCOP(=S)(Nc1nc(N)cc(=O)[nH]1)OCCC | inactive: -4.97% |
| Cc1ccc(NCCc2c([N+](=O)[O-])cc([N+](=O)[O-])cc2[N+](=O)[O-])cc1 | inactive: -13.1% |
| Nc1cccc2c([As](=O)(O)O)cccc12 | inactive: -25.3% |
| Cc1cc(C)cc(OP(C)(=O)Nc2ccccn2)c1 (stereo not drawn) | inactive: 7.64% |
| CP(=O)(Nc1cccc(Br)c1)Oc1ccccc1 (stereo not drawn) | inactive: -4.39% |
| O=C(O)COc1ccc([As](=O)(O)O)cc1[N+](=O)[O-] | inactive: -0.352% |
| Nc1ccccc1[As](=O)(O)c1ccccc1 | inactive: 7.44% |
| O=[N+]([O-])c1cccc([N+](=O)[O-])c1 | inactive: -1.54% |
| CCOP1(=S)c2c(C)nn(CCC#N)c2N=C(c2ccccc2F)N1C (stereo not drawn) | inactive: -12.2% |
| CC1=NCCc2c1[nH]c1ccccc21.O=[N+]([O-])c1cc([N+](=O)[O-])c(O)c([N+](=O)[O-])c1 | inactive: -14.4% |
| CN(C(=O)Cc1ccc(Cl)c(Cl)c1)[C@H]1CC[C@@]2(CCCO2)C[C@@H]1N1CCCC1 | inactive: -21.6% |
| O=[N+]([O-])c1ccc2c(c1)nnn2O | inactive: -9.97% |
| CN(C)C(=O)c1cc([N+](=O)[O-])cc2c1-c1c(cc([N+](=O)[O-])cc1[N+](=O)[O-])C2=O | inactive: -23.6% |
